Reference: paper PMC9031908 (RSC Advances, 2021)

System: rats
Settings: oral, 0.02 to 0.2 mg kg^−1

SMILES: Cc1nc2n(c(=O)c1CCN1CCC(c3noc4cc(F)ccc34)CC1)CCCC2 [Risperidone, risperidone]
- difference in exploration times for novel and familiar objects, retention trial: no significant difference
